Patent publication US10961163B2, “Compositions and methods useful for enhancing the microbial conversion of nitrate into ammonium” (The Regents of the University of California, priority 2016, dated 2021)

System: microbial enrichment cultures
Test: Inhibitory potency (IC50) of inorganic compounds against growth and ammonium production, microbial enrichment with yeast extract

## Sodium bromate
  NH4^+ IC50/growth IC50 ratio: 53.7262
